PMC12131314, “Design, synthesis and cytotoxic research of a novel antitumor model based on acrylamide–PABA analogs via β-tubulin inhibition” (RSC Advances, 2025)

Test system: β-tubulin
Assay: β-tubulin polymerization inhibition (β-tubulin assay kit) in MCF-7 cells
Format: cell-based
Procedure: S4.2.1. Cytotoxic activity evaluation
To measure the cytotoxic actvity of the synthesized acrylamide-PABA derivatives 4a-j in breast MCF-7 (ATCC Cat. No. HTB-22), liver HepG2 (ATCC Cat No. HB-8065), and normal breast MCF-10A (ATCC Cat. No. CRL 10317) cell lines, cell viability assay was assessed using MTT assay method. Cells at density of 1 x 104 were seeded in a 96-well plate at 37 °C for 24 h under 5% CO2. After incubation, the cells were treated with different concentrations of the test acrylamide-PABA hybrids 4a-j and incubated for 24 h, then 20 µl of MTT solution at 5 mg/mL was applied and incubated for 4 h at 37 °C. Dimethyl sulphoxide (DMSO) in volume of 100 µl was added to each well to dissolve the purple formazan that had formed. The color intensity of the formazan product, which represents the growth condition of the cells, is quantified by using an ELISA plate reader (EXL 800, USA) at 570 nm absorbance. The experimental conditions were carried out with at least three replicates, and the experiments were repeated at least three times.
S4.2.2. β-tubulin inhibition Assay […]
according to manufacturer’s instructions

COc1cc2c(c(OC)c1OC)-c1ccc(OC)c(=O)cc1[C@@H](NC(C)=O)CC2 [Col, Colchicine, reference compound]
percentage inhibition of β-tubulin polymerization: 84.33%
